Here are results for 1 compound from US9725446B2, “7-azaindole derivatives” (MERCK PATENT GmbH, priority 2011, dated 2017).

Sequences of proteins named here, by UniProt entry; tags and fusion partners are left off. Residues count along the entry.
UniProt O15530, 51-556: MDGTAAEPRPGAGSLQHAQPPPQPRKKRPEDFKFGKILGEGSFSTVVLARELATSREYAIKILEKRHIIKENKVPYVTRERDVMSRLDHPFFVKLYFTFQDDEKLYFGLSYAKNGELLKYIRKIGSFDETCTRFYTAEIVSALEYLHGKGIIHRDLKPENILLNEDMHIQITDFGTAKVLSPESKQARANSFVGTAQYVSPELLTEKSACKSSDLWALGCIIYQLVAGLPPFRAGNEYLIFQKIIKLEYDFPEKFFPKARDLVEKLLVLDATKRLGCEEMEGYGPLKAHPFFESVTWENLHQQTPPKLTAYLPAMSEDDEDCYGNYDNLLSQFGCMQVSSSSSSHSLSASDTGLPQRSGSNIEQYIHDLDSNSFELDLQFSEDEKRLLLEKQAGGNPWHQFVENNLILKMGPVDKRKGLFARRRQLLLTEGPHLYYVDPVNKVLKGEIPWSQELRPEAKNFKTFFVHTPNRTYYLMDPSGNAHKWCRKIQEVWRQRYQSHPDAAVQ
UniProt Q14164, whole entry, species assumed: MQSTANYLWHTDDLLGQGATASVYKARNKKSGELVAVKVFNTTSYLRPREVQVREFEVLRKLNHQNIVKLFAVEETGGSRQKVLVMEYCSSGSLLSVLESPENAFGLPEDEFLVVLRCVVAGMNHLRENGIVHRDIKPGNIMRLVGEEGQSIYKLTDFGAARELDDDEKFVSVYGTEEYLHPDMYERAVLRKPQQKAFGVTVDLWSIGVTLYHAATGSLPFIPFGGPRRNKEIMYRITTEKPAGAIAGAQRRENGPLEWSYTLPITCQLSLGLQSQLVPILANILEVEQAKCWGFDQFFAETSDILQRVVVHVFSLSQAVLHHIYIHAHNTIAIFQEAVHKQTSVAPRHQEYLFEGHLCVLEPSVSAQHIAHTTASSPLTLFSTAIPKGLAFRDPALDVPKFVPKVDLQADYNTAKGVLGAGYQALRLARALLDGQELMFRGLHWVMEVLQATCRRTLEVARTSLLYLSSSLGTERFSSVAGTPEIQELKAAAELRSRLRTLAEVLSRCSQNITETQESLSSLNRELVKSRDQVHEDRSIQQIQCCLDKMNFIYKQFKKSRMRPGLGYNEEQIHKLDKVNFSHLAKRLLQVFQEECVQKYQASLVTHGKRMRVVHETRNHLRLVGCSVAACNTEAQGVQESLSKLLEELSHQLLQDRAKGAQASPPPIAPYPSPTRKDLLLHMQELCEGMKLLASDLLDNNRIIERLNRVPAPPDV

One test has as its target PDK1 (Homo sapiens (Human), UniProt O15530). The test can be described thus: Test for the inhibition of PDK1 (flashplate, 33P-ATP). It counts as biochemical. On the procedure: The experimental batches are carried out in a flashplate system with 384 wells/microtitration plate.
In each case, the PDK1 sample His6-PDK1 ([…]1-50)(3.4 nM), the PDK1 substrate biotin-bA-bA-[…] (400 nM), 4 μM ATP (with 0.2 μCi of ^33P-ATP/well) and the test substance in 50 μl of conventional experimental solution per well are incubated at 30° C. for 60 min. The test substances are employed in corresponding concentrations (if desired in a dilution series). The control is carried out without test substance. The reaction is stopped using standard methods and washed. The activity of the kinase is measured via the incorporated radioactivity in top count. In order to determine the non-specific kinase reaction (blank value), the experimental batches are carried out in the presence of 100 nM staurosporine.
The radioactivity (decompositions per minute) of the blank value (no use of test substance in the presence of staurosporine) is subtracted from all other radioactivity values. The controls (kinase activity without test substance) are set equal to 100 percent and all other radioactivity values (after subtracting the blank value) are expressed set in relation thereto (for example in % of the control).

The next test addresses IKKε (Homo sapiens (Human), UniProt Q14164). Briefly: IKKε kinase test (384-well flashplate). It counts as biochemical. The following applies: read-out: IC50 [IKKepsilon]. Here is the method: The kinase assay is performed as 384-well flashplate assay.
1 nM IKKε, 800 nM biotinylated IκBα(19-42) peptide (biotin-C6-C6-[…]) and 10 μM ATP (with 0.3 μCi of ^33P-ATP/well) are incubated in a total volume of 50 μl (10 mM MOPS, 10 mM magnesium acetate, 0.1 mM EGTA, 1 mM dithiothreitol, 0.02% of Brij35, 0.1% of BSA, 0.1% of BioStab, pH 7.5) with or without test substance at 30° C. for 120 min. The reaction is stopped using 25 μl of 200 mM EDTA solution, filtered off with suction after 30 min at room temperature, and the wells are washed 3 times with 100 μl of 0.9% NaCl solution. The non-specific proportion of the kinase reaction (blank) is determined using 3 μM EMD 1126352 (BX-795). Radioactivity is measured in the Topcount. IC50 values are calculated using RS1.

A word on the IC50: it is the concentration that inhibits the measured activity by half. With `Cn1cc(-c2c[nH]c3ncccc23)c2ccncc21` [Compound A19, 1-methyl-3-(1H-pyrrolo[2,3-b]pyridin-3-yl)-1H-pyrrolo[2,3-c]pyridine], the IC50 on PDK1 and at IKKε was 1 to 10 µM each time.
